Experimental findings from patent US20260285866A1, “MODULATORS OF TRPML, THEIR COMPOSITIONS AND METHODS OF USE” (Caraway Therapeutics, Inc., priority 2024, published 2026) are described below.

Chains of the proteins cited; added tags and fusions are not shown.
UniProt Q9GZU1, whole entry L15A/L16A/L577A/L578A: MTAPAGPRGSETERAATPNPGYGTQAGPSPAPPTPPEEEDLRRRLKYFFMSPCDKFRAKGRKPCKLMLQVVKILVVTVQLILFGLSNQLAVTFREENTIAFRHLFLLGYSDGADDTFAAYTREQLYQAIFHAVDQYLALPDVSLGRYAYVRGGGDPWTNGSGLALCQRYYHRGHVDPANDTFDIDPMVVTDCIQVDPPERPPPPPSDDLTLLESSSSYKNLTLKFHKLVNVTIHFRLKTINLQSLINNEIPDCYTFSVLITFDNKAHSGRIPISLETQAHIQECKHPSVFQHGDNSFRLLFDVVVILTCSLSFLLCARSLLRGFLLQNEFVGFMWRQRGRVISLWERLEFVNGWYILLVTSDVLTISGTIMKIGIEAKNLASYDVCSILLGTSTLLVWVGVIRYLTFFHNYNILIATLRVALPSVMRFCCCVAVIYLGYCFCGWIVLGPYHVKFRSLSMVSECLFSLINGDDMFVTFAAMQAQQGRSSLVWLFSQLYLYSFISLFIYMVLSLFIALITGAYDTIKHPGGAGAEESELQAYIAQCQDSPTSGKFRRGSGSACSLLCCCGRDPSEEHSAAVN
UniProt Q8IZK6, whole entry: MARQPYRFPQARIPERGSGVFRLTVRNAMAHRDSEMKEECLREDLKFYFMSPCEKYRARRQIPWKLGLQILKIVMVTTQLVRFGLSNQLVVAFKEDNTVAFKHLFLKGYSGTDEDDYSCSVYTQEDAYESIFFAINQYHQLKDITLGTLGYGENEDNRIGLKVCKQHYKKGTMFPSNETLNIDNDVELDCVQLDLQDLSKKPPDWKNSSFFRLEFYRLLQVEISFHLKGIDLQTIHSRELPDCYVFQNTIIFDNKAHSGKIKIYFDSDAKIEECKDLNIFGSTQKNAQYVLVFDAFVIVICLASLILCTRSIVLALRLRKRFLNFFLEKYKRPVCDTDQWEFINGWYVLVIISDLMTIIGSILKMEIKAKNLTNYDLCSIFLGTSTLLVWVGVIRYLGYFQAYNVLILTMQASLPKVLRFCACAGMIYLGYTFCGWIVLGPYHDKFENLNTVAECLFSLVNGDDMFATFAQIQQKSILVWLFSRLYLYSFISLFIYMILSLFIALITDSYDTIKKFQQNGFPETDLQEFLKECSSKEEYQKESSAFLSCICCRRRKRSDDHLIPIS
UniProt Q8TDD5, whole entry: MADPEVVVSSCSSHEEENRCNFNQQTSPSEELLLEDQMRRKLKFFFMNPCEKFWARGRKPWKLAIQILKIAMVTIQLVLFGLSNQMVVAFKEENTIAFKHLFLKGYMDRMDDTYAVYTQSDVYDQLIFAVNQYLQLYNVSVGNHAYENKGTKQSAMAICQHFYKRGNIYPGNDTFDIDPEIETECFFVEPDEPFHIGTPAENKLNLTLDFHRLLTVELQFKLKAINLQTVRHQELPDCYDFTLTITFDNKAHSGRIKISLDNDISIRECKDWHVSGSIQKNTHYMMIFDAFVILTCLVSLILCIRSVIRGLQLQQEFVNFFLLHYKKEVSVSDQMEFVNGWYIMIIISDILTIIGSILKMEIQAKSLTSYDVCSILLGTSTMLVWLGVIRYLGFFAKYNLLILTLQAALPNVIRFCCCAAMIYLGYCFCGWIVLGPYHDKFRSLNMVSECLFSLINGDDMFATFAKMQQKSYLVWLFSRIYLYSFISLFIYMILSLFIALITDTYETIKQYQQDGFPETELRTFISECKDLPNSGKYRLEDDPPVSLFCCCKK

The term EC50 denotes the concentration needed to bring the measured effect to its halfway point.

One test has as its target Human TRPML1 (Homo sapiens, UniProt Q9GZU1, L15A/L16A/L577A/L578A). The test can be described thus: Fluorescent TRPML1 assay (Fluo4-AM, HEK-293 Trex cells expressing hTRPML1). To be noted: read-out: Human TRPML1: EC50, fluorescent calcium assay, doxycycline-induced hTRPML1. The method, then: Example 27. Fluorescent TRPML Assays
(§1) HEK-293 Trex cells were stably transfected with a construct consisting of the human coding sequence for TRPML1 cloned into the tet-inducible plasmid pCDNA5 T/O. Mutations were introduced into the TRPML1 sequence to facilitate expression on the cell surface (Silvia Vergarajauregui, Rosa Puertollano Traffic. 2006 March; 7(3): 337-353). Briefly, the cells are cultured in 150 mm round tissue culture dishes containing 20 mL of media. The day before the assay the cells are rinsed with DPBS-Ca-Mg and then treated briefly with Trypsin-EDTA. The Trypsin-EDTA is diluted with growth media, and cells are counted. […]
(§2) 50 microliters of dye-loaded cells are dispensed into each well of the compound assay plate created above. The fluorescence in each well is then determined with an excitation wavelength of 480 nm and an emission wavelength of 540 nm using either a Molecular Devices SpectraMax multimode plate reader or a Hamamatsu FDSS/uCell plate imager.
The resulting fluorescence for each well is exported as an ascii file and loaded into our LIMS for analysis. The percent activity of each compound at each concentration is determined by comparison to the positive and negative control wells included in each plate.
(§3) EC50 values were calculated using a non-linear regression of Prism. […]

The next test concerns the target Human TRPML2 (Homo sapiens, UniProt Q8IZK6). The test can be described thus: Fluorescent TRPML2 assay (as for TRPML1). To be noted: read-out: Human TRPML2: EC50; fluorescent calcium assay as for TRPML1, TRPML2 subtype. As for the experimental part:
as §1, §2
(§4) The resulting fluorescence for each well is exported as an ascii file and loaded into our LIMS for analysis. The percent activity of each compound at each concentration is determined by comparison to the positive and negative control wells included in each plate. […]
as §3

For a further test, the target named is Human TRPML3 (Homo sapiens, UniProt Q8TDD5). The test can be described thus: Fluorescent TRPML3 assay (as for TRPML1). To be noted: read-out: Human TRPML3: EC50; fluorescent calcium assay as for TRPML1, TRPML3 subtype. As for the experimental part:
as §1, §2, §4, §3

On to `C[C@@H]1CN(c2ncnc3c2c(-c2ccccc2)cn3-c2cc(OC(F)(F)F)ccn2)[C@@H](C)CN1C(=O)C(C)(C)O`, for which the half-maximal effective concentration (EC50) lay in the range of 100 to 500 nM at Human TRPML1, 500 to 2000 nM at Human TRPML2 and 500 to 2000 nM on Human TRPML3.
